This passage reports Ki results from ChEMBL document CHEMBL4680277, “Targeting Metabolism of Extracellular Nucleotides via Inhibition of Ectonucleotidases CD73 and CD39” (J Med Chem, 2020).

What is called Ki is a measure of affinity in units of concentration, obtained from inhibition or displacement. The low end stands for a stronger hold on the target, the high end for a looser hold on the target.

In the assay the target is T1, Ectonucleoside triphosphate diphosphohydrolase 1 (Homo sapiens, UniProt P49961).
T1 sequence (P49961 whole entry): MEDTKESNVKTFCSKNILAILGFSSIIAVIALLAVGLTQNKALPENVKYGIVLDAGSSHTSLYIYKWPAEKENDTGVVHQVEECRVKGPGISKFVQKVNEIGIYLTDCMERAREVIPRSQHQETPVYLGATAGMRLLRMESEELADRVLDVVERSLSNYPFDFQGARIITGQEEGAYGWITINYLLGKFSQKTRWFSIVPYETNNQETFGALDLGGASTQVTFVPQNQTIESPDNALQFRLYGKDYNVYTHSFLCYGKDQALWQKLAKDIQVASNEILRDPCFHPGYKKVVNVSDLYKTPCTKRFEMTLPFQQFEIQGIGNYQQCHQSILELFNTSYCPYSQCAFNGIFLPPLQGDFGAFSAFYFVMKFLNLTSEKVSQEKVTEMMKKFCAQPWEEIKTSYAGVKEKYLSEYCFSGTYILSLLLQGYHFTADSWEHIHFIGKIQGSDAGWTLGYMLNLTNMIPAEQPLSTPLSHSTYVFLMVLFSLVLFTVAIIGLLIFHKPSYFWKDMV

In the case of `CCN(CC)c1ncnc2c1ncn2[C@@H]1O[C@H](COP(=O)(O)OP(=O)(O)C(Br)(Br)P(=O)(O)O)[C@@H](O)[C@H]1O`, the affinity corresponds to a Ki of 11 µM.
